In patent publication US7033509B2 (priority 2000, dated 2006):

Assays:
Assay type in all cases: cell-based
[1] = tested on: fungi on the surface of strawberry; experiment: Strawberry (Sanitization Unit), total fungi on surface; conditions: Sanitization Unit dip 1 min, 30 ppm
[2] = tested on: bacteria on the surface of rockmelon; experiment: Rockmelon (Sanitization Unit), total bacteria on surface; conditions: Sanitization Unit dip 1 min, 30 ppm
[3] = tested on: bacteria on the surface of avocado; experiment: Avocado (Sanitization Unit), total bacteria on surface; conditions: Sanitization Unit dip 1 min, 30 ppm
[4] = tested on: fungi on the surface of apple; experiment: Apple with dirt (Sanitization Unit), total fungi on surface; conditions: iodine set at 20 ppm, chlorine not recharged; for Fungal population per cm^2 Log10 reduction: vs control
[5] = tested on: bacteria on the surface of strawberry; experiment: Strawberry (Sanitization Unit), total bacteria on surface; conditions: Sanitization Unit dip 1 min, 30 ppm
[6] = tested on: bacteria on the surface of apple; experiment: Apple (Iodine Sanitization Unit), total bacteria on surface; conditions: Iodine Sanitization Unit dip 1 min, 30 ppm
[7] = tested on: fungi on the surface of peach; experiment: Peach (lab dipped), total fungi on surface; conditions: lab dipped 1 min, 30 ppm
[8] = tested on: fungi on the surface of potato; experiment: Potato (Sanitizing Unit), total fungi on surface; conditions: Sanitizing Unit dip 1 min, 30 ppm
[9] = tested on: fungi on the surface of rockmelon; experiment: Rockmelon (Sanitization Unit), total fungi on surface; conditions: Sanitization Unit dip 1 min, 30 ppm
[10] = tested on: bacteria on the surface of lettuce; experiment: Lettuce (Sanitizing Unit), total bacteria on surface; conditions: Sanitizing Unit dip 1 min, 30 ppm
[11] = tested on: fungi on the surface of tomato; experiment: Tomato with dirt (Sanitization Unit), total fungi on surface; conditions: iodine 20 ppm; for Fungal population per cm^2 Log10 reduction: vs control
[12] = tested on: bacteria on the surface of tomato; experiment: Tomato with dirt (Sanitization Unit), total bacteria on surface; conditions: iodine 20 ppm; for Bacterial population per cm^2 Log10 reduction: vs control
[13] = tested on: bacteria on the surface of peach; experiment: Peach (lab dipped), total bacteria on surface; conditions: lab dipped 1 min, 30 ppm
[14] = tested on: bacteria on the surface of potato; experiment: Potato (Sanitizing Unit), total bacteria on surface; conditions: Sanitizing Unit dip 1 min, 30 ppm
[15] = tested on: fungi on the surface of apple; experiment: Apple (Iodine Sanitization Unit), total fungi on surface; conditions: Iodine Sanitization Unit dip 1 min, 30 ppm
[16] = tested on: fungi on the surface of avocado; experiment: Avocado (Sanitization Unit), total fungi on surface; conditions: Sanitization Unit dip 1 min, 30 ppm
[17] = tested on: bacteria on the surface of apple; experiment: Apple with dirt (Sanitization Unit), total bacteria on surface; conditions: iodine set at 20 ppm, chlorine not recharged; for Bacterial population per cm^2 Log10 reduction: vs control
[18] = tested on: fungi on the surface of lettuce; experiment: Lettuce (Sanitizing Unit), total fungi on surface; conditions: Sanitizing Unit dip 1 min, 30 ppm
[19] = dipped at 0 min (before dirt), listed as chlorine
[20] = dipped at 0 min (before dirt), chlorine 30 ppm
[21] = dipped at 0 min (before dirt), chlorine 30 ppm, listed as chlorine
[22] = dipped at 5 min, chlorine 30 ppm initial
[23] = dipped at 20 min, chlorine 30 ppm initial
[24] = dipped at 50 min, chlorine 30 ppm initial

For chlorine, the “Fungal population per cm^2 Actual count” value [1] was 519 per cm^2, the “Fungal population per cm^2 Log10 count” value [1] was 2.62 log10 units and the “Fungal population per cm^2 Log10 reduction” value ([1]; vs undipped control) was 0.31 a log10 units. For the same substance, the “Bacterial population per cm^2 Actual count” value [2] was 10,752 per cm^2, the “Bacterial population per cm^2 Log10 count” value [2] was 4.03 log10 units and the “Bacterial population per cm^2 Log10 reduction” value ([2]; vs undipped control) was 1.06 bcd log10 units. For the same substance, the “Bacterial population per cm^2 Actual count” value [3] was 23 per cm^2, the “Bacterial population per cm^2 Log10 count” value [3] was 1.22 log10 units and the “Bacterial population per cm^2 Log10 reduction” value ([3]; vs undipped control) was 1.70 d log10 units. The “Fungal population per cm^2 Actual count” value ([4]; dipped at 0 min (before dirt)) was 3 per cm^2, the “Fungal population per cm^2 Log10 count” value ([4]; dipped at 0 min (before dirt)) was 0.20 log10 units and the “Fungal population per cm^2 Log10 reduction” value ([4]; dipped at 0 min (before dirt)) was 1.53 defg log10 units. For the same substance, the “Fungal population per cm^2 Log10 reduction” value [4, 19] was “about 1.5 log10 units”, the “Fungal population per cm^2 Actual count” value ([4]; dipped at 5 min) was 7 per cm^2 and the “Fungal population per cm^2 Log10 count” value ([4]; dipped at 5 min) was 0.60 log10 units. The “Fungal population per cm^2 Log10 reduction” value ([4]; dipped at 5 min) was 1.14 cde log10 units, the “Fungal population per cm^2 Actual count” value ([4]; dipped at 20 min) was 6 per cm^2 and the “Fungal population per cm^2 Log10 count” value ([4]; dipped at 20 min) was 0.67 log10 units. For the same substance, the “Fungal population per cm^2 Log10 reduction” value ([4]; dipped at 20 min) was 1.07 bcde log10 units, the “Fungal population per cm^2 Actual count” value ([4]; dipped at 50 min) was 19 per cm^2 and the “Fungal population per cm^2 Log10 count” value ([4]; dipped at 50 min) was 1.22 log10 units. For the same substance, the “Fungal population per cm^2 Log10 reduction” value ([4]; dipped at 50 min) was 0.52 ab log10 units, the “Bacterial population per cm^2 Actual count” value [5] was 3710 per cm^2 and the “Bacterial population per cm^2 Log10 count” value [5] was 3.53 log10 units. The “Bacterial population per cm^2 Log10 reduction” value ([5]; vs undipped control) was 0.66 bcd log10 units, the “Bacterial population per cm^2 Actual count” value [6] was 4.0 per cm^2 and the “Bacterial population per cm^2 Log10 count” value [6] was 0.28 log10 units. For the same substance, the “Bacterial population per cm^2 Log10 reduction” value ([6]; vs undipped control) was 1.86 b log10 units, the “Fungal population per cm^2 Actual count” value [7] was 3.2 per cm^2 and the “Fungal population per cm^2 Log10 count” value [7] was 0.29 log10 units. For the same substance, the “Fungal population per cm^2 Log10 reduction” value ([7]; vs undipped control) was 1.97 d log10 units, the “Fungal population per cm^2 Actual count” value [8] was 4 per cm^2 and the “Fungal population per cm^2 Log10 count” value [8] was 0.62 log10 units. For the same substance, the “Fungal population per cm^2 Actual count” value [9] was 0.80 per cm^2, the “Fungal population per cm^2 Log10 count” value [9] was −0.10 log10 units and the “Fungal population per cm^2 Log10 reduction” value ([9]; vs undipped control) was 2.95 e log10 units. For the same substance, the “Bacterial population per cm^2 Actual count” value [10] was 14 per cm^2, the “Bacterial population per cm^2 Log10 count” value [10] was 0.71 log10 units and the “Bacterial population per cm^2 Log10 reduction” value ([10]; vs undipped control) was 2.11 d log10 units. The “Fungal population per cm^2 Actual count” value [11, 20] was 3 per cm^2, the “Fungal population per cm^2 Log10 count” value [11, 20] was 0.23 log10 units and the “Fungal population per cm^2 Log10 reduction” value [11, 20] was 1.34 fghi log10 units. The “Fungal population per cm^2 Log10 reduction” value [11, 21] was “about 1 log10 units”, the “Fungal population per cm^2 Actual count” value [11, 22] was 4.7 per cm^2 and the “Fungal population per cm^2 Log10 count” value [11, 22] was 0.62 log10 units. The “Fungal population per cm^2 Log10 reduction” value [11, 22] was 0.94 def log10 units, the “Fungal population per cm^2 Actual count” value [11, 23] was 9 per cm^2 and the “Fungal population per cm^2 Log10 count” value [11, 23] was 0.86 log10 units. For the same substance, the “Fungal population per cm^2 Log10 reduction” value [11, 23] was 0.71 cd log10 units, the “Fungal population per cm^2 Actual count” value [11, 24] was 25 per cm^2 and the “Fungal population per cm^2 Log10 count” value [11, 24] was 1.30 log10 units. The “Fungal population per cm^2 Log10 reduction” value [11, 24] was 0.26 ab log10 units, the “Bacterial population per cm^2 Actual count” value [12, 20] was 12 per cm^2 and the “Bacterial population per cm^2 Log10 count” value [12, 20] was 0.98 log10 units. The “Bacterial population per cm^2 Log10 reduction” value [12, 20] was 1.03 defg log10 units, the “Bacterial population per cm^2 Log10 reduction” value [12, 21] was “about 1 log10 units” and the “Bacterial population per cm^2 Actual count” value [12, 22] was 15 per cm^2. The “Bacterial population per cm^2 Log10 count” value [12, 22] was 1.17 log10 units, the “Bacterial population per cm^2 Log10 reduction” value [12, 22] was 0.92 def log10 units and the “Bacterial population per cm^2 Actual count” value [12, 23] was 23 per cm^2. The “Bacterial population per cm^2 Log10 count” value [12, 23] was 1.38 log10 units, the “Bacterial population per cm^2 Log10 reduction” value [12, 23] was 0.74 cd log10 units and the “Bacterial population per cm^2 Actual count” value [12, 24] was 36 per cm^2. For the same substance, the “Bacterial population per cm^2 Log10 count” value [12, 24] was 1.56 log10 units, the “Bacterial population per cm^2 Log10 reduction” value [12, 24] was 0.46 bc log10 units and the “Bacterial population per cm^2 Actual count” value [13] was 79 per cm^2. The “Bacterial population per cm^2 Log10 count” value [13] was 0.85 log10 units, the “Bacterial population per cm^2 Log10 reduction” value ([13]; vs undipped control) was 2.46 de log10 units and the “Bacterial population per cm^2 Actual count” value [14] was 378 per cm^2. The “Bacterial population per cm^2 Log10 count” value [14] was 2.56 log10 units, the “Bacterial population per cm^2 Log10 reduction” value ([14]; vs undipped control) was 0.38 ab log10 units and the “Fungal population per cm^2 Actual count” value [15] was 1.8 per cm^2. The “Fungal population per cm^2 Log10 count” value [15] was −0.13 log10 units, the “Fungal population per cm^2 Log10 reduction” value ([15]; vs undipped control) was 2.12 b log10 units and the “Fungal population per cm^2 Actual count” value [16] was 9.3 per cm^2. The “Fungal population per cm^2 Log10 count” value [16] was 0.94 log10 units, the “Fungal population per cm^2 Log10 reduction” value ([16]; vs undipped control) was 1.11 bc log10 units and the “Bacterial population per cm^2 Actual count” value ([17]; dipped at 0 min (before dirt)) was 3 per cm^2. The “Bacterial population per cm^2 Log10 count” value ([17]; dipped at 0 min (before dirt)) was 0.25 log10 units, the “Bacterial population per cm^2 Log10 reduction” value ([17]; dipped at 0 min (before dirt)) was 1.77 fg log10 units and the “Bacterial population per cm^2 Log10 reduction” value [17, 19] was “about 1.5 log10 units”. For the same substance, the “Bacterial population per cm^2 Actual count” value ([17]; dipped at 5 min) was 26 per cm^2, the “Bacterial population per cm^2 Log10 count” value ([17]; dipped at 5 min) was 1.03 log10 units and the “Bacterial population per cm^2 Log10 reduction” value ([17]; dipped at 5 min) was 0.99 bcd log10 units. The “Bacterial population per cm^2 Actual count” value ([17]; dipped at 20 min) was 22 per cm^2, the “Bacterial population per cm^2 Log10 count” value ([17]; dipped at 20 min) was 1.07 log10 units and the “Bacterial population per cm^2 Log10 reduction” value ([17]; dipped at 20 min) was 0.94 bc log10 units. For the same substance, the “Bacterial population per cm^2 Actual count” value ([17]; dipped at 50 min) was 56 per cm^2, the “Bacterial population per cm^2 Log10 count” value ([17]; dipped at 50 min) was 1.69 log10 units and the “Bacterial population per cm^2 Log10 reduction” value ([17]; dipped at 50 min) was 0.33 a log10 units. The “Fungal population per cm^2 Actual count” value [18] was 0.44 per cm^2, the “Fungal population per cm^2 Log10 count” value [18] was −0.35 log10 units and the “Fungal population per cm^2 Log10 reduction” value ([18]; vs undipped control) was 1.67 bc log10 units.
